Results from US10285962B2, “Glutarate compounds for treating ischemia-reperfusion injuries” (The Regents of the University of California, priority 2016, dated 2019).

Sequences of proteins named here, by UniProt entry; tags and fusion partners are left off. A change or cut given only in a name is not applied to a line headed by its entry.
UniProt P56480: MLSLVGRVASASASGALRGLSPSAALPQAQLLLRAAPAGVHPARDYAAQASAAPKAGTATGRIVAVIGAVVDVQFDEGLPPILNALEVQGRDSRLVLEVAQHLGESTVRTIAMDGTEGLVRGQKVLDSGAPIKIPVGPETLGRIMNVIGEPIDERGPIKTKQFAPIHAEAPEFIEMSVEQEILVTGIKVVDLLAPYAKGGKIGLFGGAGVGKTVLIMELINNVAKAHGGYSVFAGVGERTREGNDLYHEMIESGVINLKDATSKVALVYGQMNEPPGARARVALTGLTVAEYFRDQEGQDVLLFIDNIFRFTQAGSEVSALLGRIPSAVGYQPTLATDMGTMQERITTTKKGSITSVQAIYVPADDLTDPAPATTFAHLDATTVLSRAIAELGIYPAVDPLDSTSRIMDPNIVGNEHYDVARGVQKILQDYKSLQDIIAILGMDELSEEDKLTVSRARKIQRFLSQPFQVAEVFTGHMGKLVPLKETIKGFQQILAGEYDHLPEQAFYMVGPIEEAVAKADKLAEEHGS
UniProt Q9CR84: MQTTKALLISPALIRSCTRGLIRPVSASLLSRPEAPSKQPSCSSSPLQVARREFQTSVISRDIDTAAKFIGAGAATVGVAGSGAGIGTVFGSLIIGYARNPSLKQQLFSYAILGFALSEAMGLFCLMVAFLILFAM
UniProt Q9DB20: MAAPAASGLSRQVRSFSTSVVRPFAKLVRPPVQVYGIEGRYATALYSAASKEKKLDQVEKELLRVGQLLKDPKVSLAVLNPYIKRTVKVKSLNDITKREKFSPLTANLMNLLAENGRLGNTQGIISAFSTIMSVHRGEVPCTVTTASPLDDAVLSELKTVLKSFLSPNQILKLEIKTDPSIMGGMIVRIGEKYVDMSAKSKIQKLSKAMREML

Target: cyclophilin D binding to Complex V (Mus musculus, UniProt P56480+Q9CR84+Q9DB20)
Settings: mouse heart mitochondria, immunoblot

CN1C(=O)C(Cc2ccc3ccccc3c2)N=C(c2ccc(O)cc2)c2cc(Cl)ccc21 (centres unmarked) [Bz-423]
CypD binding to Complex V: reduces

CC[C@H]1/C=C/C=C/C[C@@H](C)[C@H](O)[C@@](C)(O)C(=O)[C@@H](C)[C@H](O)[C@@H](C)C(=O)[C@@H](C)[C@H](O)[C@@H](C)/C=C/C(=O)O[C@@H]2[C@H](C)[C@H](CC1)O[C@]1(CC[C@H](C)[C@H](C[C@@H](C)O)O1)[C@H]2C [oligomycin]
CypD binding to Complex V: increases
